In BindingDB's records for 24314397:
pKi: −log10 of the molar value.

Chains of the proteins cited; added tags and fusions are not shown.
UniProt P11444, whole entry, looked up: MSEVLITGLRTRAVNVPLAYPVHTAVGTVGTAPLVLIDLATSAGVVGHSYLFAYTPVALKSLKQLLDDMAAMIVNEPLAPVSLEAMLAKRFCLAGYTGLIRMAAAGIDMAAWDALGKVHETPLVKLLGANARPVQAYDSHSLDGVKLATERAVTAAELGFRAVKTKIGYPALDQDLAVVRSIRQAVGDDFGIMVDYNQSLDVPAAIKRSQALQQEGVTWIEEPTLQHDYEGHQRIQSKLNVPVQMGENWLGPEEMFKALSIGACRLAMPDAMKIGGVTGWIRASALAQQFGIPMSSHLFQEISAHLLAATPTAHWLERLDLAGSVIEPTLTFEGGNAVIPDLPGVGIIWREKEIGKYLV

Target: Mandelate racemase (Pseudomonas putida, UniProt P11444)

`O=C(O)C(O)(c1ccccc1)c1ccccc1` was tested, and the pKi was 3.15.
